{"sequences": {"note": "Chains of the proteins cited; added tags and fusions are not shown. Lines headed by an entry give the natural chain unless they say otherwise; changes in a name come on top.", "UniProt P22303": "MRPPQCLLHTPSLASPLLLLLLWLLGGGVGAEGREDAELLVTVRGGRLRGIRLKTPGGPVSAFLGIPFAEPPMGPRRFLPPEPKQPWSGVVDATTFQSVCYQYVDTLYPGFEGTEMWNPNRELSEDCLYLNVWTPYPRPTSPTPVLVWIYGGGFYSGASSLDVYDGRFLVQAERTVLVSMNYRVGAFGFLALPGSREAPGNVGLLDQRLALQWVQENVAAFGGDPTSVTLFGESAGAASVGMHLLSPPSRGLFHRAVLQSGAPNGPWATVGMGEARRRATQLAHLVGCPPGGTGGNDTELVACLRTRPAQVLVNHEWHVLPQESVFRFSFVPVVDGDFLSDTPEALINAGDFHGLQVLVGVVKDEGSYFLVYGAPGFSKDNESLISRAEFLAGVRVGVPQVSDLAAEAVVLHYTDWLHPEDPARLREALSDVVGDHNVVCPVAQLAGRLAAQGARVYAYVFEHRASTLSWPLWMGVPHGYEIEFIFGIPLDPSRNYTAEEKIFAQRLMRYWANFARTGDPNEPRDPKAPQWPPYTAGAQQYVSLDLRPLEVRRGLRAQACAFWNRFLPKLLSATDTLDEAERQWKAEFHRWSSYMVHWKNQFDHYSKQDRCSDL"}, "source": "ChEMBL document CHEMBL3351781", "about": "“Assessment of antidotal efficacy of cholinesterase reactivators against paraoxon: In vitro reactivation kinetics and physicochemical properties” (2014)", "biological_target": "Acetylcholinesterase (Homo sapiens) (UniProt P22303)", "test": "Maximum reactivation of paraoxon-inhibited AChE (unknown origin)"}
{"smiles": "NC(=O)c1cc[n+](Cc2ccccc2C[n+]2ccc(/C=N/O)cc2)cc1", "values": [{"measurement": "max activation", "result": 31, "unit": "%"}]}
{"smiles": "NC(=O)c1cc[n+](Cc2cccc(C[n+]3ccc(/C=N/O)cc3)c2)cc1", "values": [{"measurement": "max activation", "result": 35, "unit": "%"}]}
{"smiles": "NC(=O)c1cc[n+](CCCC[n+]2ccc(/C=N/O)cc2)cc1", "values": [{"measurement": "max activation", "result": 68, "unit": "%"}]}
{"smiles": "C[n+]1cccc(/C=N/O)c1", "values": [{"measurement": "max activation", "result": 31, "unit": "%"}]}
{"smiles": "O/N=C/c1cc[n+](Cc2ccc(C[n+]3ccc(/C=N/O)cc3)cc2)cc1", "values": [{"measurement": "max activation", "result": 49, "unit": "%"}]}
{"smiles": "NC(=O)c1cc[n+](CCC[n+]2ccc(/C=N/O)cc2)cc1", "values": [{"measurement": "max activation", "result": 66, "unit": "%"}]}
{"smiles": "O/N=C\\c1cc[n+](Cc2ccccc2C[n+]2ccc(/C=N\\O)cc2)cc1", "values": [{"measurement": "max activation", "result": 55, "unit": "%"}]}
{"smiles": "O/N=C/c1cc[n+](CCC[n+]2ccc(/C=N/O)cc2)cc1", "values": [{"measurement": "max activation", "result": 93, "unit": "%"}]}
{"smiles": "NC(=O)c1cc[n+](Cc2ccc(C[n+]3ccc(/C=N/O)cc3)cc2)cc1", "values": [{"measurement": "max activation", "result": 34, "unit": "%"}]}
{"smiles": "C[n+]1ccc(/C=N/O)cc1", "values": [{"measurement": "max activation", "result": 66, "unit": "%"}]}
{"smiles": "NC(=O)c1cc[n+](C/C=C\\C[n+]2ccc(/C=N/O)cc2)cc1", "values": [{"measurement": "max activation", "result": 51, "unit": "%"}]}
{"smiles": "CC(=O)/C=N/O", "values": [{"measurement": "max activation", "result": 55, "unit": "%"}]}
{"smiles": "CC(=O)/C(C)=N/O", "values": [{"measurement": "max activation", "result": 20, "unit": "%"}]}
{"smiles": "C[n+]1ccccc1C=NO", "values": [{"measurement": "max activation", "result": 68, "unit": "%"}]}
